Assay results as given in patent US20030044861A1, “Method for diagnosing neoplasia” (priority 1998, published 2003).

Molecular target: T1, PDE peak A (PDE5) from SW-480 cells (Homo sapiens, UniProt O76074)
T1 construct: SW-480 cells are collected and homogenized; The homogenate is centrifuged, and the supernatant is loaded onto a DEAE-Trisacryl M column; endogenous in cells; host or cells: SW-480 human colon carcinoma cells, DEAE-Trisacryl M fraction peak A
Assay: cGMP hydrolysis by PDE peak A
Format: biochemical

IC50: 3 nM
SMILES: O=C([O-])C1CCN(c2nc(NCc3ccc4c(c3)OCO4)c3cc(Cl)ccc3n2)CC1.[Na+] [Compound E4021]
